Experimental data: patent publication US8822500B2 (dated 2014)

The chains behind the UniProt entries cited, without tags or fusion partners. Residues count along the entry.
UniProt P04629, 33-796: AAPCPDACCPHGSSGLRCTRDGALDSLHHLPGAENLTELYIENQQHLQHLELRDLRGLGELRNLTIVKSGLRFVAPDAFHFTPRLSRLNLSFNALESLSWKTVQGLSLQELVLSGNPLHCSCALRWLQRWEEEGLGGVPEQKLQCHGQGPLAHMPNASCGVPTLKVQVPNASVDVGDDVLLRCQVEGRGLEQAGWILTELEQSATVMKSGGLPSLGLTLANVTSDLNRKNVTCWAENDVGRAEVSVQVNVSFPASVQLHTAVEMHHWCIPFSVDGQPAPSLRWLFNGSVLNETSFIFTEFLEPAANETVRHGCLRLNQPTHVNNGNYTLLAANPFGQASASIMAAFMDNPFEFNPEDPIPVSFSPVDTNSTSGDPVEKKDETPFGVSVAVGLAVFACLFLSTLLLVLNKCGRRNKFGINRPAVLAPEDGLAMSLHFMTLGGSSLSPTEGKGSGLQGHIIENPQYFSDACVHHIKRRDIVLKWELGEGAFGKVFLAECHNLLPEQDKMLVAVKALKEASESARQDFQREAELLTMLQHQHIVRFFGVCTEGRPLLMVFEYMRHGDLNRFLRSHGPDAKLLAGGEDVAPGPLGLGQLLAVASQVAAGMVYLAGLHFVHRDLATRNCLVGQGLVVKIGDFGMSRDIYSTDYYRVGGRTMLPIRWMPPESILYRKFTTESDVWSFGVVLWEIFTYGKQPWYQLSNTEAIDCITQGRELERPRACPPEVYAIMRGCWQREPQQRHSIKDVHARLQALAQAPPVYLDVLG
UniProt Q9UM73, 19-1620: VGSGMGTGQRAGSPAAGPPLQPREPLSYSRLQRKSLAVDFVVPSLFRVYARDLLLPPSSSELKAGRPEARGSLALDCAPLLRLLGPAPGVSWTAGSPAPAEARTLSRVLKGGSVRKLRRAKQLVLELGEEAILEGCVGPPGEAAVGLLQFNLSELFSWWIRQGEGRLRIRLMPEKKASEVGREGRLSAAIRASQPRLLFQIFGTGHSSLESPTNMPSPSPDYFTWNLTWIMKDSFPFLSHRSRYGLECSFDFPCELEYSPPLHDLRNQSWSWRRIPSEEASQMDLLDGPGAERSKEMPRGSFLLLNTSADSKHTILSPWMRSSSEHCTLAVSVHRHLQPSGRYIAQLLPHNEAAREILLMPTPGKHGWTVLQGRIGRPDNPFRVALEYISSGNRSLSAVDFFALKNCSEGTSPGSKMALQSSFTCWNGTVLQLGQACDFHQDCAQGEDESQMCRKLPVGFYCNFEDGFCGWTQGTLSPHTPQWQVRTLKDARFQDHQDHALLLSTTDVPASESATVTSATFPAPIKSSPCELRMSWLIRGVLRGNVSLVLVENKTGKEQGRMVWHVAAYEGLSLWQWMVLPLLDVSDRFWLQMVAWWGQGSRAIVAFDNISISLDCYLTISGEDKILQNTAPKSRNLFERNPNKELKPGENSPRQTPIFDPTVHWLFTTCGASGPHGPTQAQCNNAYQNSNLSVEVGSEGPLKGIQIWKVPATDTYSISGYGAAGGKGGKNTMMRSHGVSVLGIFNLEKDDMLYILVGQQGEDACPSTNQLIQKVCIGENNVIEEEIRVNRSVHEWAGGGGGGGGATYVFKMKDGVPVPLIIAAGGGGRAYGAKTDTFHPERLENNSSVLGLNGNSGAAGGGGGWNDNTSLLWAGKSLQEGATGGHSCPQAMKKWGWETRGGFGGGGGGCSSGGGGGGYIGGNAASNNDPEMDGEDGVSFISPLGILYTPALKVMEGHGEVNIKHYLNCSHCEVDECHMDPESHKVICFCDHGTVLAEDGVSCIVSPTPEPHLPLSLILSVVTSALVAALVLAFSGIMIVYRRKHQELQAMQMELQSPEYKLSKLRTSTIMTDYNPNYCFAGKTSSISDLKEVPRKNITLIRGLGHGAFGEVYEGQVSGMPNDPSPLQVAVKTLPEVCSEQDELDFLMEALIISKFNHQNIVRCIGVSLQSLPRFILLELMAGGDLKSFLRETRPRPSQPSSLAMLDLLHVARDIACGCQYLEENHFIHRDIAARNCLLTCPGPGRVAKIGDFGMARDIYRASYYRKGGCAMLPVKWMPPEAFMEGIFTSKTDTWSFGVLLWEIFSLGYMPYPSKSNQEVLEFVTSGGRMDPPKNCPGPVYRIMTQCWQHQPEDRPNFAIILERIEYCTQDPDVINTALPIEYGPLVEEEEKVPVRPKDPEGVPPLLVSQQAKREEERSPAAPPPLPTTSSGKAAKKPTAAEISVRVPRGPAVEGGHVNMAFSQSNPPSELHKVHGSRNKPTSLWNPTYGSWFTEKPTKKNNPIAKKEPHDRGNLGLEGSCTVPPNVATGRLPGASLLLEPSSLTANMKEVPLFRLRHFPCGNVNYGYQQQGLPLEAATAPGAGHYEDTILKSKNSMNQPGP

Experiments:
TrkA = TrkA (Homo sapiens (Human), UniProt P04629); assay: In vitro kinase activity assay (LANCE TR-FRET); format: biochemical; conditions: read-out: TrkA (nM) IC50;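 also: kinase reaction with poly-GT peptide substrate and ATP, phosphorylated product quantified by time-resolved FRET, eleven-point dose curves from 10^−11 to 10^−5 M in triplicate, DMSO as negative control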
ALK = ALK (Homo sapiens (Human), UniProt Q9UM73); assay: In vitro kinase activity assay (LANCE TR-FRET); format: biochemical; conditions: read-out: ALK IC50;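 also: kinase reactions with ATP and a poly-GT peptide substrate, phosphorylated product read by time-resolved FRET, 11-point curve from 10^−11 to 10^−5 M, DMSO as negative control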

Compound	IC50 (TrkA)	IC50 (ALK)
C[C@@H](Cc1c(F)c(F)cc(F)c1F)Nc1cc[nH]c(=O)c1-c1nc2cc3c(cc2[nH]1)C(=O)N(CCN(C)C)C3 [Compound 1, (S)-6-(2-(Dimethylamino)ethyl)-2-(2-oxo-4-((1-(2,3,5,6-tetrafluorophenyl)propan-2-yl)amino)-1,2-dihydropyridin-3-yl)-6,7-dihydroimidazo[4,5-f]isoindol-5(3H)-one]	1.14 nM	
(S)-6-(6-Fluoropyridin-3-yl)-2-(2-oxo-4-((1-(2,3,5,6-tetrafluorophenyl)propan-2-yl)amino)-1,2-dihydropyridin-3-yl)imidazo[4,5-f]isoindole-5,7(1H,6H)-dione [Compound 15]		> 10000 nM
